The values below come from patent publication US8951999B2, “Compounds” (Orexo AB, priority 2009, dated 2015).

The chains behind the UniProt entries cited, without tags or fusion partners.
UniProt O14684, whole entry: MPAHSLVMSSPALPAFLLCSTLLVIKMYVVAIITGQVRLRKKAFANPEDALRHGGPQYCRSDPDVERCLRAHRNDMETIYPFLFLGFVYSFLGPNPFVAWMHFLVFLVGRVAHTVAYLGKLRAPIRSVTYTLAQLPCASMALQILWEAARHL

This experiment concerns the target recombinant human mPGES-1 (Homo sapiens, UniProt O14684). Kind of experiment: Assay B: mPGES-1 enzyme assay (modified). The conditions noted are these: read-out: mPGES-1 inhibitory effect IC50; biological assay B (all other compounds); PGH2 final conc. 2 μM, HTRF. The protocol:
Assay B: mPGES-1 Enzyme Assay (Modified)
The aim of this assay is to determine the affinity of a test compound for the mPGES-1 enzyme.
47 μl of recombinant human mPGES-1 (˜0.5 μg protein/well) containing microsomal suspension in a buffer containing GSH, (2.5 mmol/L L-Glutathione reduced, dissolved in 0.1 mol/L Phosphat Buffer pH 7.4) is dispensed in a 384-well plate and thereafter 1 μl of the test compound(s) is/are added and incubated for 25 minutes at room temperature. The enzyme reaction is started by the addition of 2 ul PGH2 (final conc. 2 μM) dissolved in water-free Diglyme. […] In order to quantify the amount of PGE2 that has been formed, a homogenous time resolved fluorescent (HTRF) detecting of PGE2 has been performed using a commercially available kit from Cisbio according to the manufactures recommendation. […] After an incubation period of the plates over night, the fluorescence is measured by the use of an appropriate microplate reader.
The fluorescence of Europium cryptate (maxex=307 nm, maxem=620 nm) and d2-PGE2 (maxex=620 nm, maxem=665 nm) are measured.
The extent of the specific HTRF is measured as a ratio of the emission intensity at 665 nm vs. that at 620 nm at an excitation pulse of 320 nm. The quantification plate contains also wells with different concentrations of PGE2 as calibration curve for the calculation of the PGE2 concentrations from the HTRF ratio values. […]

Molecules are shown by their SMILES.

`CC(C)(C)C(=O)NCc1ccc(Cl)c(C(=O)Nc2ccc(N3CCC(C(F)(F)F)CC3)c(C(=O)Nc3ccc(Br)cc3)c2)c1Cl`: the IC50 was 2 nM.
